This is an account of results in patent publication US4232010A, “Calcium-antagonistic composition” (Kanebo, Ltd., priority 1978, dated 1980).

This assay addresses T1, taenia coli (Cavia porcellus).
T1 construct: a test was conducted using isolated taenia colis about 2 cm long; from tissue; host or cells: isolated guinea-pig taenia coli
The assay is described as follows: Calcium antagonist activity (pA2), isolated guinea-pig taenia coli. Here is the method:
Male guinea-pigs weighing 350-450 g each were slaughtered and a test was conducted using isolated taenia colis about 2 cm long. A taenia coli was suspended in a Magnus chamber (Locke solution, 25°±2° C., aerated) and the contractile response of the taenia coli was recodered through an isotonic transducer. To the decalcified taenia coli was cumulatively added 0.1 to 100 mM of calcium in the presence of 6×10^-3 g/ml of K^+ to obtain a dose-contraction curve for calcium and, after the taenia coli was decalcified again, a dose-contraction curve for calcium was determined in the presence of the test compound. Based on the difference between the responses, the pA2 of calcium antagonist activity of the test compound was computed.

`COc1ccc([C@@H]2Sc3ccccc3N(CCN(C)C)C(=O)[C@@H]2OC(C)=O)cc1` [Diltiazem, reference compound]: the Kb is 417 nM.
